Screens deposited in PubChem by several laboratories.
Rows were chosen to be rich in hits. Some 2.3% of all compounds tested hit in one or more screens of this group.
CendR NRP1 mod = alters CendR peptide binding to human NRP-1; actives 0.85% (n = 360,000); inhibition, % at 25 µM; O14786; AID 602438; FAM-RPARPAR peptide binding to NRP-1, fluorescence polarization;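 active means inhibition or corrected inhibition above about 18%, plus a signal ratio from 0.5 to 1.5, limit read from the data, passing the limit was not always enough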
ASAP1 inh = ASAP1 ArfGAP inhibition; Q9ULH1; ASAP1-stimulated ARF1 GTP hydrolysis, GDP FP detection; inhibition, % at 16.5 µM; actives 0.19% (n = 360,000); in the data active means inhibition above about 25%;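 further: 0% = vehicle with enzyme and substrate and 100% = no enzyme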
ARFGAP1 inh = inhibits rat ARF GTPase activating protein 1; Q62848; Arfgap1-stimulated ARF1 GTP hydrolysis, GDP FP detection; inhibition, % at 16.5 µM; actives 0.26% (n = 360,000); AID 651572;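 active means inhibition above a per-plate limit, mean inhibition of low control wells plus 3 SD, cut at about 25% in these data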;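 further: 0% = DMSO wells with enzyme and 100% = wells lacking Arfgap1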
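Assay system: purified rat His6-Arfgap1 residues 1-136 (GAP domain); Reagent: human Δ17 ARF1 bound to GTP; Dosing: 16.5 µM single point, 1.26% DMSO; Times: GTP hydrolysis reaction 2 h at 25 °C; Signal: FP, GDP Alexa 633 tracer displaced from anti-GDP antibody, 620/688 nm; Measure: % inhibition from polarization.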
UUG fidelity = modulators of yeast start codon fidelity, primary screen, whole organism, S. cerevisiae, single point, plate reader; S. cerevisiae UUG-firefly luciferase reporter, luminescence/redox ratio; activity score, % at 18.7 µM; actives 0.13% (n = 350,000); AID 602363, 2012;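 active = replicate mean at a twofold rise or more, about +100% in these data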;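 also: firefly luciferase made from a UUG start codon reports start codon fidelity; reporter light over untreated wells divided by growth signal over untreated wells; some hits fall short of that in this replicate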
MC4R antagonist = blocks human MC4R cAMP signaling; inhibition, % at 6.5 µM; MC4R-expressing cells, MTII-stimulated cAMP, LANCE TR-FRET; P32245; actives 0.48% (n = 360,000);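 active means inhibition above its plate's cutoff, the mean of tested wells on that plate plus 3 SD, cut at about 29% in these data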;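 further: 0% = Melanotan II alone and 100% = Melanotan II plus saturating MCL0020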
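System: U2OS cells stably expressing human melanocortin 4 receptor (MC4R). Reagent: Melanotan II challenge after compound preincubation. Doses: 6.5 µM. Times: 30-min compound, 1-h challenge, 1-h detection, room temperature. Measured by: TR-FRET with Eu-cAMP and labeled anti-cAMP, 671 nm. Replicates: singlicate.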
MC4R ag barr = activates human MC4R beta-arrestin recruitment; P32245; actives 0.98% (n = 360,000); activation, % at 8.9 µM; U2OS MC4R beta-arrestin complementation, luminescence; percent of melanotan II response, DMSO zero;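 active means activation above a per-plate cutoff, the mean activation of sample wells on that plate plus 3 SD, cut at about 8% in these data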
Numbers without * were called inactive; x = not tested or not shown.

mol,CendR NRP1 mod,ASAP1 inh,ARFGAP1 inh,UUG fidelity,MC4R antagonist,MC4R ag barr
O=C(COC(=O)C1CC1)Nc1ccc(OC(F)F)cc1,46.0*,-3.3,-15.8,-16.7,-2.7,-2.4
CCOc1cc(C(c2c(O)nc(SC)[nH]c2=O)c2c(O)nc(SC)[nH]c2=O)ccc1O,30.5*,-0.1,-1.4,-6.0,-0.7,1.0
O=C(CSc1nnc(CNC(=O)c2ccco2)o1)Nc1cccc(C(F)(F)F)c1,-1.2,4.3,2.9,-13.6,2.2,-0.1
O=C(CSc1nnc(CNC(=O)c2ccco2)o1)Nc1cccc(F)c1,19.4*,-0.1,3.8,-7.7,2.3,-3.0
NC(=O)c1nsc(C(=O)N(c2cccc(F)c2)C(C(=O)NC2CCCC2)c2ccco2)c1N (centres undefined),-5.7,-5.5,8.5,-14.7,-2.0,8.9*
CCc1ccc(N(C(=O)c2snc(C(N)=O)c2N)C(C(=O)NC2CCCC2)c2ccco2)cc1 (centres undefined),8.1,-18.3,-4.6,-4.0,1.6,-0.4
COc1ccc(C(C(=O)NC2CCCC2)N(C(=O)c2snc(C(N)=O)c2N)c2ccccc2OC)cc1OC (centres undefined),32.0*,-6.4,-14.0,7.5,2.7,-2.6
Cc1cccc(OCc2nnc(SCC(=O)N3CCCC3)o2)c1,3.6,-7.2,1.7,-12.3,5.0,4.5

Reformatted: entries from further up.
CendR NRP1 mod | ASAP1 inh | ARFGAP1 inh | UUG fidelity | MC4R antagonist | MC4R ag barr | SMILES
46.0* | -3.3 | -15.8 | -16.7 | -2.7 | -2.4 | O=C(COC(=O)C1CC1)Nc1ccc(OC(F)F)cc1
30.5* | -0.1 | -1.4 | -6.0 | -0.7 | 1.0 | CCOc1cc(C(c2c(O)nc(SC)[nH]c2=O)c2c(O)nc(SC)[nH]c2=O)ccc1O
-1.2 | 4.3 | 2.9 | -13.6 | 2.2 | -0.1 | O=C(CSc1nnc(CNC(=O)c2ccco2)o1)Nc1cccc(C(F)(F)F)c1

The listing continues.
mol,CendR NRP1 mod,ASAP1 inh,ARFGAP1 inh,UUG fidelity,MC4R antagonist,MC4R ag barr
CCOc1ccc(NC(=O)CSc2nnc(COc3c(C)cccc3C)o2)cc1,24.0*,8.8,5.5,-11.4,-0.6,0.8
Cc1cccc(OCc2nnc(SCC(=O)Nc3ccc(C)c(Cl)c3)o2)c1,-0.7,-0.4,3.7,6.5,-6.8,27.4*
Cc1cccc(C)c1OCc1nnc(SCC(=O)Nc2nccs2)o1,-6.0,-12.6,-9.2,-29.1,5.2,-0.6
COCCNC(=O)C[C@@H]1C[C@H]2c3cc(NC(=O)C4CCOCC4)ccc3O[C@H]2[C@H](CO)O1,x,x,x,-0.8,x,x
COC(=O)CCCC1=CC2=CC(=O)C(C)(OC(=O)c3cccs3)C(=O)C2=CN1Cc1ccccc1 (centres undefined),4.8,-3.8,-5.5,-5.3,3.1,-1.9
CC1(OC(=O)c2cccs2)C(=O)C=C2C=C3CCCN3C=C2C1=O (centres undefined),41.0*,x,x,-14.1,-3.0,-1.2
CC1(OC(=O)CCc2ccccc2)C(=O)C=C2C=C3CCCN3C=C2C1=O (centres undefined),48.0*,-3.1,-0.4,-12.0,3.8,-1.4
COC(=O)CCCC1=CC2=CC(=O)C(C)(OC(=O)c3cccs3)C(=O)C2=CN1CCCOC(C)C (centres undefined),27.9*,14.9,-8.3,-4.7,6.8,-0.4

Next part:
mol,CendR NRP1 mod,ASAP1 inh,ARFGAP1 inh,UUG fidelity,MC4R antagonist,MC4R ag barr
CO[C@@H]1CN(C)C(=O)c2cc(NC(C)=O)ccc2OC[C@H](C)N(CC2CC2)C[C@H]1C,x,x,x,-11.7,x,x
C[C@@H]1CN([C@H](C)CO)C(=O)c2cc(NC(=O)Cn3cnnn3)ccc2O[C@H]1CN(C)C(=O)Nc1ccc(F)cc1,x,x,x,0.8,x,x
N#Cc1ccc(NC(=O)Cn2c3[n+](c4ccc(C(F)(F)F)cc42)CCCCC3)cc1,-0.6,3.7,-1.6,x,-3.2,0.6
O=C(Cn1c2[n+](c3ccc(C(F)(F)F)cc31)CCCCC2)Nc1ccc(Br)cc1,6.4,x,x,x,29.6*,0.8
CCNC(=O)C[C@H]1C=C[C@H](NS(=O)(=O)c2ccc(C)cc2)[C@@H](CO)O1,x,x,x,-17.9,x,x
CCC(=O)Nc1ccc2c(c1)OC[C@@H](C)N(Cc1cccc(F)c1)C[C@H](C)[C@H](OC)CN(C)C2=O,x,x,x,-11.4,x,x
CO[C@H]1CN(C)C(=O)c2ccc(NC(C)=O)cc2OC[C@@H](C)N(CCC(F)(F)F)C[C@@H]1C,x,x,x,-2.9,x,x
CO[C@H]1CN(C)C(=O)c2cc(NC(=O)c3ccccc3)ccc2OC[C@H](C)N(C(=O)CN(C)C)C[C@H]1C,x,x,x,-9.0,x,x
Cc1cccc(C)c1Nc1nnc(SCC(=O)Nc2cc(S(=O)(=O)N3CCCCC3)ccc2Cl)s1,25.5*,16.9,3.5,x,25.0,0.9
COc1ccc(OCC(=O)Nc2cc(S(=O)(=O)N3CCCC3)ccc2Cl)cc1,-10.6,11.7,-6.2,-22.8,-2.2,9.0*
COc1ccc(OCC(=O)Nc2cc(S(=O)(=O)N3CCCCC3)ccc2OC)cc1,5.5,-14.1,-1.6,1.4,1.0,-3.3
